Results from patent US7045152B2, “Treating pulmonary disorders with gaseous agent causing repletion of GSNO” (Duke University, priority 1999, dated 2006).

How the values were obtained:
[1] = system: cystic fibrosis; assay: Inhaled gas / nebulized treatment of patients with cystic fibrosis (Examples IV, IX, XI, XII); assay type: in vivo, human
[2] = system: pulmonary hypertension; assay: Inhaled gas treatment of patients with pulmonary hypertension (Examples I, V); settings: Example V, secondary pulmonary hypertension, inhaled 20 ppm in nitrogen

Molecule: CCON=O [Ethylnitrite]
- sputum production ([1]; Example XII, ethylnitrite 10 parts per million with nebulized Angeli's salt 50 mM/3 cc, day 2): decreases

Molecule: HNO
- symptomatic status ([1]; Example XI, person, cystic fibrosis, labored breathing, 10 ppm in nitrogen): improvements in their symptomatic status

Molecule: thionyldinitrite
- pulmonary pressures ([2]; person, from 70): 60 mm Hg
- PaO2 ([2]; from PO2 of 50): 70 mm Hg
